Data on one substance can be found in paper PMC6156383 (Frontiers in Psychiatry, 2018).

Amino acid sequences for entries named in this document (tags omitted). A change or cut given only in a name is not applied to a line headed by its entry.
UniProt P41146: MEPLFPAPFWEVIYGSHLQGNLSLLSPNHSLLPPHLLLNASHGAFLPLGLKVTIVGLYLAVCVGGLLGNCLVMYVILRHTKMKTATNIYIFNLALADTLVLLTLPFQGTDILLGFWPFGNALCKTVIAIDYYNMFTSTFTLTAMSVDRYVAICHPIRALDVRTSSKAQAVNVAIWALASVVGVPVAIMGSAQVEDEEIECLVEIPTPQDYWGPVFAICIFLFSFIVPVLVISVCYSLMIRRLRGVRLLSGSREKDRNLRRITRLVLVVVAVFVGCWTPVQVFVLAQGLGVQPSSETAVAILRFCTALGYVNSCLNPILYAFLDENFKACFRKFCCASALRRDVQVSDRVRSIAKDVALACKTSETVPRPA

This assay has as its target T1, NOP receptor (Homo sapiens, UniProt P41146).
T1 construct: expressed in transfected cells
Description: [35S]GTPγS binding stimulation (agonist), CHO membranes. The assay is classed as biochemical. As to conditions: [35S]GTPγS stimulation relative to standard agonist N/OFQ. Background: GTPγS resists hydrolysis and so accumulates on activated G proteins.

On to “nociceptin/orphanin FQ [reference compound]”, for which the NOP % stim is recorded as 100%.
